{"sequences": {"note": "Sequences of proteins named here, by UniProt entry; tags and fusion partners are left off. A change or cut given only in a name is not applied to a line headed by its entry. Residues count along the entry.", "UniProt Q9UQ88": "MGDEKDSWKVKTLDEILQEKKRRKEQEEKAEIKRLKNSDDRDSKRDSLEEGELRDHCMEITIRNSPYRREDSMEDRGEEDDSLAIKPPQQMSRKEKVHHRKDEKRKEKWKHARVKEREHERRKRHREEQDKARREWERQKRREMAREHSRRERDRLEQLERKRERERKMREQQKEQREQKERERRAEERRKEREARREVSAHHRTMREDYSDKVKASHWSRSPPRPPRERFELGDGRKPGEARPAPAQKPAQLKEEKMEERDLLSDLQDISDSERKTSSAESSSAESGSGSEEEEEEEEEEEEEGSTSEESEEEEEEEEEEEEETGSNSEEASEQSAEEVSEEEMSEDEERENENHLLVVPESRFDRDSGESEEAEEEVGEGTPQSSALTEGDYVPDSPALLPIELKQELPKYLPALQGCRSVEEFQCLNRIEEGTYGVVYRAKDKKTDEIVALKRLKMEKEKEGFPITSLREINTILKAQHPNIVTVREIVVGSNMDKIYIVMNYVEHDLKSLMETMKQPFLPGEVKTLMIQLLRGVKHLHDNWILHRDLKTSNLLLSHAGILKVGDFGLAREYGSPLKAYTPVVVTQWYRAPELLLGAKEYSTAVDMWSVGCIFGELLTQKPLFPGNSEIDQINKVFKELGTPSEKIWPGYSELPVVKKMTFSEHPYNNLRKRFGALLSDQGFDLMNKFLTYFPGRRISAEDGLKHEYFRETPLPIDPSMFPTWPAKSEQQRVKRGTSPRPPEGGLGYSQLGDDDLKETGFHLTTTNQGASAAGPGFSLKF", "UniProt P36894, 24-532": "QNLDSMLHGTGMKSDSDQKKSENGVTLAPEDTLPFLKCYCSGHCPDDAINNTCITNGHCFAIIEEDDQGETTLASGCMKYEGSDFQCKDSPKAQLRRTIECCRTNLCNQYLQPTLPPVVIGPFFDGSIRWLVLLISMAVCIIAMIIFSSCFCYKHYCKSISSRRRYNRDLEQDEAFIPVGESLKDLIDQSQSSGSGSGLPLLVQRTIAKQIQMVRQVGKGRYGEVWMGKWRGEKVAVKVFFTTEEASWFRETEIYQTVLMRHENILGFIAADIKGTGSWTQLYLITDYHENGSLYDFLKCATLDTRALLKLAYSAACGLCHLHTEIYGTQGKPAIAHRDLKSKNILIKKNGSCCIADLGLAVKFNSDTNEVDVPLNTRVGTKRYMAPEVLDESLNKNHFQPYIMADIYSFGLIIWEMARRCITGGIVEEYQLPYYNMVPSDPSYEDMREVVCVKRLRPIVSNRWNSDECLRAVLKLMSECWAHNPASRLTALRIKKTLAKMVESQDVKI", "UniProt P28482, whole entry": "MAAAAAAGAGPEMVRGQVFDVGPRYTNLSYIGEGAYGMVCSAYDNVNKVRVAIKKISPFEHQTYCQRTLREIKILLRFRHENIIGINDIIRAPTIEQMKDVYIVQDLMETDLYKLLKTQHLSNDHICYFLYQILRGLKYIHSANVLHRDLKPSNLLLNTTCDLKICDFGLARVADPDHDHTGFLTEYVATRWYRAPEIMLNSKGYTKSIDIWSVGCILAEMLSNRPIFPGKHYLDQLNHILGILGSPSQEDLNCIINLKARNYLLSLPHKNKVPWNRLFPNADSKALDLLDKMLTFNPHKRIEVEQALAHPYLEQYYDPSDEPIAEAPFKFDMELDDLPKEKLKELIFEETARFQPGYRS", "UniProt Q13882, whole entry": "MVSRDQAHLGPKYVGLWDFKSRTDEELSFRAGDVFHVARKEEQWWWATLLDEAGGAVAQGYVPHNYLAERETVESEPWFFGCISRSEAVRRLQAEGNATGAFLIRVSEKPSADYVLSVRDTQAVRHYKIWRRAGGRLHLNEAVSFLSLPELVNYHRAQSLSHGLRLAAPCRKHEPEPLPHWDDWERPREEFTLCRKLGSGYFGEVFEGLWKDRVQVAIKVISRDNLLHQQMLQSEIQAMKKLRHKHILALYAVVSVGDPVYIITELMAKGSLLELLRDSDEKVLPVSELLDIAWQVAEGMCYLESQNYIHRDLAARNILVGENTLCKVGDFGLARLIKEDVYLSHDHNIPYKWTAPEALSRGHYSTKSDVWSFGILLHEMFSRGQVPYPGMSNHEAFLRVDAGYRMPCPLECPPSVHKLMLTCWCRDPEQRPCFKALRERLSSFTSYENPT", "UniProt Q9P2K8, 590-1001 S808G limits assumed": "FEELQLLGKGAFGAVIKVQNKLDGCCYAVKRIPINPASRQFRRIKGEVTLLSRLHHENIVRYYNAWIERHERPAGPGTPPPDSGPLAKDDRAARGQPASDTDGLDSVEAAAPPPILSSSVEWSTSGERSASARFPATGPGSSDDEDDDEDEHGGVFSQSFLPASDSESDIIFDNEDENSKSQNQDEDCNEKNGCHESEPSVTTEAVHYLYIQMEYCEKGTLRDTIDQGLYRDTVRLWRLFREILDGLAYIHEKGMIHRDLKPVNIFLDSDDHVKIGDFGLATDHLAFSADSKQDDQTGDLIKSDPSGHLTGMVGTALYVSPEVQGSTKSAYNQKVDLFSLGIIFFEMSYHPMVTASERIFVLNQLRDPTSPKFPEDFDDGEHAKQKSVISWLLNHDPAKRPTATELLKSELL", "UniProt O14976": "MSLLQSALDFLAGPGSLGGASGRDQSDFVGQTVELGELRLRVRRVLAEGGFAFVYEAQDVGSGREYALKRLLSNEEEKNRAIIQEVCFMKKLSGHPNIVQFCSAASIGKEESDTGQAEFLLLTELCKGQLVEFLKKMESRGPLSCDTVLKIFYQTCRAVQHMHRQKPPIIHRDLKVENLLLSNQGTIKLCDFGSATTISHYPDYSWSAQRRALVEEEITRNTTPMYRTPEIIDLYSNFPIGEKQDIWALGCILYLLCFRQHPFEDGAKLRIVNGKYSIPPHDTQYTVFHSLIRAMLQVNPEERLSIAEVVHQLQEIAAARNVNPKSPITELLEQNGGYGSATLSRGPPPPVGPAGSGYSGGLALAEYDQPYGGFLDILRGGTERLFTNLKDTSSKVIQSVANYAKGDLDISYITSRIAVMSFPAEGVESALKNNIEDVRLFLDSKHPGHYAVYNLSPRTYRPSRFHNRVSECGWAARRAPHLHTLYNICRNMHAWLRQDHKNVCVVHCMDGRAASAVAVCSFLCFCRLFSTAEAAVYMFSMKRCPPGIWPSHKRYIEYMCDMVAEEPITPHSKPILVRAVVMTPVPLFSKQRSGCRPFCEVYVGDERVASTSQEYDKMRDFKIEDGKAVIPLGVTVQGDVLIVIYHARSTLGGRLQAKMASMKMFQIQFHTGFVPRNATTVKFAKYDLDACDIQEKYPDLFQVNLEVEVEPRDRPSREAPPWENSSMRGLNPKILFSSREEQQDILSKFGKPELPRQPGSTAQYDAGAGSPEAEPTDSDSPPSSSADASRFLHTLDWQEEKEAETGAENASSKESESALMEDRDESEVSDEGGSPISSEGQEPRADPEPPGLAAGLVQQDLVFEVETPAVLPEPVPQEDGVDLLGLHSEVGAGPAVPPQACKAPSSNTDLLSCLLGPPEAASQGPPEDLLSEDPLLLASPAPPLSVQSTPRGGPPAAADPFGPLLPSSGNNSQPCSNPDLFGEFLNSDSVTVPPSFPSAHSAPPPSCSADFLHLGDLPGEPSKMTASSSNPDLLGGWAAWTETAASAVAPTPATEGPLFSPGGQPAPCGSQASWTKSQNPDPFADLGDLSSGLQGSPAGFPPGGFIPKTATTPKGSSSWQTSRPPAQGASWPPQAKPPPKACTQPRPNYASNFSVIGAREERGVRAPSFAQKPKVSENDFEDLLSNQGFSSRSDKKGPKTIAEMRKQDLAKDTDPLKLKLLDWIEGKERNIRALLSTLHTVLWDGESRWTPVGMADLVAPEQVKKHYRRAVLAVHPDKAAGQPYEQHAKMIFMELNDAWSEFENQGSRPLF", "UniProt Q9BRS2": "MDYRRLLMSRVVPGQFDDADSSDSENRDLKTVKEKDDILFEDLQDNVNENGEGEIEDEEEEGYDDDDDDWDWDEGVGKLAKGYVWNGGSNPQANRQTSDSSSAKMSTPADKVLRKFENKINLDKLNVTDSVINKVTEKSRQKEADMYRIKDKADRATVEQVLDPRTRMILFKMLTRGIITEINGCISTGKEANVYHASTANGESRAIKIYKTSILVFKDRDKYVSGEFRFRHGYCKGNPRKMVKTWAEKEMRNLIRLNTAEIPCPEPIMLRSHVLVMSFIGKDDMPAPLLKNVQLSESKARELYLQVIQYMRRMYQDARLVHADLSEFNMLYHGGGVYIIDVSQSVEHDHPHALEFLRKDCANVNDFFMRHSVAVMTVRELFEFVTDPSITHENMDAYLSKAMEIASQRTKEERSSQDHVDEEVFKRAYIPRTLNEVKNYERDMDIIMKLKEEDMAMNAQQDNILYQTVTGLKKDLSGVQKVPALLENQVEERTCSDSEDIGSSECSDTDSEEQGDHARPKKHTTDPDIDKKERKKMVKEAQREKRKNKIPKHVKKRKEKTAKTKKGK", "UniProt P29317, 24-976": "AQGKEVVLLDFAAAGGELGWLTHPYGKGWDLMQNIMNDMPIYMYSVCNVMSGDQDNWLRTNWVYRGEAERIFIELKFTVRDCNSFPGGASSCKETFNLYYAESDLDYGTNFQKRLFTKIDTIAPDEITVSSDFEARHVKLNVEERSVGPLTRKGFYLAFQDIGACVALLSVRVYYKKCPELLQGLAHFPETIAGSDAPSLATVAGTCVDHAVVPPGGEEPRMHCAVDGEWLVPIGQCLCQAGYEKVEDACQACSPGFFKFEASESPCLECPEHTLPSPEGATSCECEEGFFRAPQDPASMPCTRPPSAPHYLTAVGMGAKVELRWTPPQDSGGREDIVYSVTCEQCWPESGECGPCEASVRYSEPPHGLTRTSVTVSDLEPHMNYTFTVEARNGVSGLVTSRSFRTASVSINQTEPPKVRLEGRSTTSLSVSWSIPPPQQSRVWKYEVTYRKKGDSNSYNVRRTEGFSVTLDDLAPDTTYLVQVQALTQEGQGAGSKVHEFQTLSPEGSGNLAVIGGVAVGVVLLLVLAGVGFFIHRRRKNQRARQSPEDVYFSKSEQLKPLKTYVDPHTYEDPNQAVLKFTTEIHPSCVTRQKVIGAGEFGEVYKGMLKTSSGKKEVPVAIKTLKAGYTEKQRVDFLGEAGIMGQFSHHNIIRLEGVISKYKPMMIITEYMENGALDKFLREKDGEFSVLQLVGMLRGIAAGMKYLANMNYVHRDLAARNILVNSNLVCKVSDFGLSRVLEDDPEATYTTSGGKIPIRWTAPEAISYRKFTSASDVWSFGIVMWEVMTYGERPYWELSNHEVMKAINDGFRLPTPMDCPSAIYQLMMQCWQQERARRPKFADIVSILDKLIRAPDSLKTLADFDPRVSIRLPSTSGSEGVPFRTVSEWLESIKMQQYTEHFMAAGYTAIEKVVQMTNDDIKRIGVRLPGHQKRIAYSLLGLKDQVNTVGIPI", "UniProt P15056, whole entry": "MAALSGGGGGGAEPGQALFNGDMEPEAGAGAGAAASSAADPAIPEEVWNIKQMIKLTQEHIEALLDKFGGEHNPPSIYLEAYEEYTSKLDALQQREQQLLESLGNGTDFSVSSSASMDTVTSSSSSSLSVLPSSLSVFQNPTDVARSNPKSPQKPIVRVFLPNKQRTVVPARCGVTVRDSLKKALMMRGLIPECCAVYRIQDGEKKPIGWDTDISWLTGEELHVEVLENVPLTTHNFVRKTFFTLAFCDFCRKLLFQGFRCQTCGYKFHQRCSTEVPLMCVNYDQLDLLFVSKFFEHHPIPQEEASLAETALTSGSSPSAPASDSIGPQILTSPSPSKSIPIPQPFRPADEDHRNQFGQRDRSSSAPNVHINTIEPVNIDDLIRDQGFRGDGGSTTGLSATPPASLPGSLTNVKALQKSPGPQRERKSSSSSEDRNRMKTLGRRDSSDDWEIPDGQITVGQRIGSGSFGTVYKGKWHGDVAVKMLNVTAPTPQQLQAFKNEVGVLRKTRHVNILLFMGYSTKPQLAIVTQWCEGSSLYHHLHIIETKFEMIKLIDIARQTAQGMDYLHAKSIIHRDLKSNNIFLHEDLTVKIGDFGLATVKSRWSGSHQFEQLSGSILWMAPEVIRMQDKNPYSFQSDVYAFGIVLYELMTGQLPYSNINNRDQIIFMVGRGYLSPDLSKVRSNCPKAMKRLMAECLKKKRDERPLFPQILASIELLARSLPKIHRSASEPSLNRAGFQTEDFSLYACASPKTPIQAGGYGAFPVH"}, "source": "paper PMC11472320", "about": "“Computationally Driven Discovery of a BCR-ABL1 Kinase Inhibitor with Activity in Multidrug-Resistant Chronic Myeloid Leukemia” (Journal of Medicinal Chemistry, 2024)", "key": {"[1]": {"test_system": "FLT3(ITD,D835V)"}, "[2]": {"molecular_target": "CDC2L2 (Homo sapiens, UniProt Q9UQ88)", "experiment": "biochemical", "conditions": "read-out: Percent Control"}, "[3]": {"molecular_target": "BMPR1A (Homo sapiens, UniProt P36894)", "experiment": "biochemical", "conditions": "read-out: Percent Control"}, "[4]": {"molecular_target": "CASK (Homo sapiens, UniProt O14936)", "experiment": "biochemical", "conditions": "read-out: Percent Control"}, "[5]": {"molecular_target": "EGFR(L747-E749del, A750P) (Homo sapiens, UniProt P00533, A750P/DEL747-749)", "experiment": "biochemical", "conditions": "read-out: Percent Control"}, "[6]": {"molecular_target": "ERK2 (Homo sapiens, UniProt P28482)", "experiment": "biochemical", "conditions": "read-out: Percent Control"}, "[7]": {"molecular_target": "BRK (Homo sapiens, UniProt Q13882)", "experiment": "biochemical", "conditions": "read-out: Percent Control"}, "[8]": {"molecular_target": "GCN2(Kin.Dom.2,S808G) (Homo sapiens, UniProt Q9P2K8, S808G)", "experiment": "biochemical", "conditions": "read-out: Percent Control"}, "[9]": {"molecular_target": "GAK (Homo sapiens, UniProt O14976)", "experiment": "biochemical", "conditions": "read-out: Percent Control"}, "[10]": {"molecular_target": "RIOK1 (Homo sapiens, UniProt Q9BRS2)", "experiment": "biochemical", "conditions": "read-out: Percent Control"}, "[11]": {"molecular_target": "HIPK1 (Homo sapiens, UniProt Q86Z02)", "experiment": "biochemical", "conditions": "read-out: Percent Control"}, "[12]": {"molecular_target": "EPHA2 (Homo sapiens, UniProt P29317)", "experiment": "biochemical", "conditions": "read-out: Percent Control"}, "[13]": {"molecular_target": "BRAF (Homo sapiens, UniProt P15056)", "experiment": "biochemical", "conditions": "read-out: Percent Control"}}, "data": [{"compound": "COc1cc2c(Nc3ccc(Cl)c(OC)n3)c(C#N)cnc2cc1OCCON1CCN(C)CC1", "note": "[16a, 4-((5-Chloro-6-methoxypyridin-2-yl)amino)-6-methoxy-7-(2-((4-methylpiperazin-1-yl)oxy)ethoxy)quinoline-3-carbonitrile]", "values": [{"measurement": "Percent Control", "setting": "[1]", "result": 2.6}, {"measurement": "remaining activity at 1 µM", "setting": "[2]", "result": 96, "unit": "%"}, {"measurement": "remaining activity at 1 µM", "setting": "[3]", "result": 76, "unit": "%"}, {"measurement": "remaining activity at 1 µM", "setting": "[4]", "result": 68, "unit": "%"}, {"measurement": "remaining activity at 1 µM", "setting": "[5]", "result": 1.1, "unit": "%"}, {"measurement": "remaining activity at 1 µM", "setting": "[6]", "result": 100, "unit": "%"}, {"measurement": "remaining activity at 1 µM", "setting": "[7]", "result": 96, "unit": "%"}, {"measurement": "remaining activity at 1 µM", "setting": "[8]", "result": 1.8, "unit": "%"}, {"measurement": "remaining activity at 1 µM", "setting": "[9]", "result": 3.9, "unit": "%"}, {"measurement": "remaining activity at 1 µM", "setting": "[10]", "result": 16, "unit": "%"}, {"measurement": "remaining activity at 1 µM", "setting": "[11]", "result": 16, "unit": "%"}, {"measurement": "remaining activity at 1 µM", "setting": "[12]", "result": 7.1, "unit": "%"}, {"measurement": "remaining activity at 1 µM", "setting": "[13]", "result": 100, "unit": "%"}]}]}
